Data published in patent publication US8642265B2, “Compositions and methods for the detection of topoisomerase II complexes with DNA” (The Children's Hospital of Philadelphia, priority 2004, dated 2014).

By UniProt entry, the sequences of proteins in these tests, tags left out. Where a name states a change or a piece, a line headed by the entry shows the natural chain unless it says otherwise.
UniProt P11388: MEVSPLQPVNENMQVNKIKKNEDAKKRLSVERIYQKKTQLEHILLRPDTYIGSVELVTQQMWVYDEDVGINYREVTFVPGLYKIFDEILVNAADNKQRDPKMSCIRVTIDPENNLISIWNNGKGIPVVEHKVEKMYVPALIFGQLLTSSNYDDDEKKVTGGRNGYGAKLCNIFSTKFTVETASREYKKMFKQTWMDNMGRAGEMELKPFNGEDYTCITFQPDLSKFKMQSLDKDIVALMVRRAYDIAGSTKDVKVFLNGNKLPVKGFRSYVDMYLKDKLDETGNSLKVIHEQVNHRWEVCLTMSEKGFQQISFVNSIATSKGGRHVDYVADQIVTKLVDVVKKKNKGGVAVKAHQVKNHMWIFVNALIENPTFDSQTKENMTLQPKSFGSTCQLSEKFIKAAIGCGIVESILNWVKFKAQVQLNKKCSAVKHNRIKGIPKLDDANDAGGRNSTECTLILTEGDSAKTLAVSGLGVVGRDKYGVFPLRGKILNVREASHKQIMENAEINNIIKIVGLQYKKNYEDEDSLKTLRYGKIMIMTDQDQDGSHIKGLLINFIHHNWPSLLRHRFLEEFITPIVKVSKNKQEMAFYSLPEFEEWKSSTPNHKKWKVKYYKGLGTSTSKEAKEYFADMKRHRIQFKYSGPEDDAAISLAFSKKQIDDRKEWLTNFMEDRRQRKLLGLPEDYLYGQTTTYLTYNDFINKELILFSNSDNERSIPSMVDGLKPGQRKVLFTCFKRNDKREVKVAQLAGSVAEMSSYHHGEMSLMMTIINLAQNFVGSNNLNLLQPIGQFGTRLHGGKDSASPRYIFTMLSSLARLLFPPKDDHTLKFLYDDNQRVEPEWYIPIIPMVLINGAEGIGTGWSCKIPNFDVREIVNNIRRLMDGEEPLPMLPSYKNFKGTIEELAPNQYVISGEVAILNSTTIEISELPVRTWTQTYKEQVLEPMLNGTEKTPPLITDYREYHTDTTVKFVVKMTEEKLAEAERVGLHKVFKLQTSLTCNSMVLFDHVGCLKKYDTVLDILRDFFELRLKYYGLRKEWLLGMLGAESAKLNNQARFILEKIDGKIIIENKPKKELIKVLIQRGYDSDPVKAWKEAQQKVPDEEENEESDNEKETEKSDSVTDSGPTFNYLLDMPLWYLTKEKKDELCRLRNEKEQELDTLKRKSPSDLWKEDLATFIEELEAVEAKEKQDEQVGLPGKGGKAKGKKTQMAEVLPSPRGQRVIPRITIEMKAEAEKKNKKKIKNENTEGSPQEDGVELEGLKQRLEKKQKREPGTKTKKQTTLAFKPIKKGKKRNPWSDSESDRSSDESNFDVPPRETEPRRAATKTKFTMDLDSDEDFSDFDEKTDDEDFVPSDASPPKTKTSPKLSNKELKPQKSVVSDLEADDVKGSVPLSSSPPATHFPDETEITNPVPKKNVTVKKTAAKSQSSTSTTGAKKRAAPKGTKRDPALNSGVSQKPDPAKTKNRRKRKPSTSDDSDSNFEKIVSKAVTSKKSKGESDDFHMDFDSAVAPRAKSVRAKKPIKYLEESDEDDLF

Assays:
[1] = target: human DNA topoisomerase IIα (Homo sapiens, UniProt P11388); test: DNA topoisomerase II in vitro cleavage assay
[2] = target: T1, DNA topoisomerase II covalent complexes with MLL and other sequences in CD34+ cells (Homo sapiens, UniProt P11388); test: Immunoaffinity purification, DOP amplification and real-time PCR of DNA topoisomerase IIα-bound DNA; type: cell-based
T1 construct: endogenous in cells; host or cells: primary human bone marrow CD34+ cells, expanded ex vivo

- cleavage at AF-4 intron 3 position 7126 relative to the strongest enzyme-only cleavage in the substrate (position 7114) ([1]; 20 μM, AF-4 intron 3 substrate): 3.2 fold
- enzyme-only cleavage at GAS7 position 1238 relative to cleavage with etoposide ([1]; etoposide 20 μM, GAS7 substrate 1129 to 1440): 0.44 fold
- enzyme-only cleavage at MLL bcr position 4675 relative to cleavage with etoposide ([1]; etoposide 20 μM, MLL intron 8 substrate 4589 to 4768): 0.27 fold
- real-time PCR products, GAPDH amplicon ([2]; 100 μM, 2 hours): No products were detected
- real-time PCR products, MLL intron 8-exon 9 amplicon (MLL bcr positions 6784 to 6851) ([2]; 100 μM, 2 hours): products were detected
Compound: COc1cc([C@@H]2c3cc4c(cc3[C@@H](O[C@@H]3O[C@@H]5CO[C@@H](C)O[C@H]5[C@H](O)[C@H]3O)[C@H]3COC(=O)[C@H]23)OCO4)cc(OC)c1O [etoposide]
- real-time PCR products, MLL intron 7-exon 8 amplicon [2]: real-time PCR products that were detected
- DNA topoisomerase II covalent complexes proximal to MLL exon 25 amplicon ([2]; 100 μM, 2 hours, no product in untreated cells): induced DNA-DNA topoisomerase II covalent complexes
